Values of other authors, collected in patent publication US20160258951A1, “METHODS OF MONITORING IMMUNE RESPONSES” (THE HENRY M. JACKSON FOUNDATION FOR THE ADVANCEMENT OF …, priority 2013, published 2016).

Experiments:
[1] = system: patients with HER2/neu+ breast cancer; conditions: cited from earlier work
[2] = system: patients with low to intermediate HER2/neu expression; conditions: cited from earlier work

CC[C@H](C)[C@H](NC(=O)[C@@H](N)CCCCN)C(=O)N[C@@H](Cc1ccccc1)C(=O)NCC(=O)N[C@@H](CO)C(=O)N[C@@H](CC(C)C)C(=O)N[C@@H](C)C(=O)N[C@@H](Cc1ccccc1)C(=O)N[C@@H](CC(C)C)C(=O)O [E75, KIFGSLAFL]
clinical benefit of conferred immunity ([1]; breast cancer recurrence): clinical benefit in decreasing breast cancer recurrence | safety and stimulation of antigen-specific immunity ([1]; clinical vaccines in HER2/neu+ breast cancer): safe and effective in stimulating antigen-specific immunity

Tz: recombinant, humanized monoclonal antibody that binds the extracellular juxtamembrane domain of HER2/neu protein
clinical activity [2]: very limited activity
